According to PubChem BioAssay AID449728 (The Scripps Research Institute Molecular Screening Center, 2010):
Only a part is listed here, and it is no random draw. Some results for these compounds are left out of this collection, so the calls shown say nothing about other tests. The source made the active and inactive calls.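 The calls were made as follows: active = inhibition above the campaign's mean inhibition across all tested compounds plus 3 SD (cut at about 9.9% in these data); inactive = the rest.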

Assay: bacterial viability reduction in E. coli – absorbance, OD600, counter-screen for AddAB inhibitor project, primary screen (AID 449728);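 also: uninfected addAB+ strain grown without phage in ampicillin broth; 0% = DMSO wells and 100% = ciprofloxacin 0.95 µg/ml wells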
Conditions: E. coli V3065 growth, 18 h, at 11.9 µM, active compounds read high
With `Cc1ccccc1C(=O)NCC1(N2CCCCC2)CCCCC1` the inhibition was inactive: -0.42%.
With `CN(C)C1CCCC1OC(=O)C(O)(c1ccccc1)c1ccccc1` (centres undefined) the inhibition was inactive: 0.17%.
For `CN(C)c1ccc(C(=O)NCC2(N(C)C)CCCCC2)cc1`, the inhibition was inactive: 1.82%.
For `C=CCN1CCN(CCOC(=O)C(O)(c2ccccc2)c2ccccc2)CC1`, the inhibition was inactive: 1.69%.
For `O=C(NCC1(N2CCCCC2)CCCCC1)c1cc(F)c(F)cc1Cl`, the inhibition was inactive: -0.94%.
In the case of `COc1ccc(C(=O)NCC2(N(C)C)CCCCC2)cc1`, the inhibition is reported as inactive: -1.09%.
In the case of `Cc1cc(C(=O)NCC2(N3CCCCC3)CCCCC2)ccc1[N+](=O)[O-]`, the inhibition is reported as inactive: 0.42%.
In the case of `CCN1CCCC(OC(=O)C2(O)c3ccccc3C=Cc3ccccc32)C1` (centres undefined), the inhibition is reported as inactive: -0.6%.
With `O=C(NCC1(N2CCCCC2)CCCCC1)c1cccc(Br)c1` the inhibition was inactive: 0.77%.
With `O=C(NCC1(N2CCCCC2)CCCCC1)c1cc([N+](=O)[O-])ccc1Cl` the inhibition was inactive: 0.59%.
In the case of `CN1[C@@H]2CC[C@H]1CC(OC(=O)C(O)(c1ccccc1)c1ccccc1)C2` (some centres undefined), the inhibition is reported as inactive: -1.73%.
With `CCN(CC)CC(C)C(C)OC(=O)C(O)(c1ccccc1)c1ccccc1` (centres undefined) the inhibition was inactive: 1.63%.
In the case of `COc1cc(SC)ccc1C(=O)NCC1(N(C)C)CCCCC1`, the inhibition is reported as inactive: 0.82%.
With `CC(C)N1C(=O)CC2(CCN(CCOC(=O)C(O)(c3ccccc3)c3ccccc3)CC2)C1=O` the inhibition was inactive: 1.03%.
In the case of `Cc1ccc(C(=O)NCC2(N3CCCCC3)CCCCC2)cc1`, the inhibition is reported as inactive: -1.71%.
For `O=C(OC1CN2CCC1CC2)C(CO)(c1ccccc1)c1ccccc1` (centres undefined), the inhibition was inactive: 2.85%.
With `COc1ccc(Br)c(C(=O)NCC2(N3CCCCC3)CCCCC2)c1` the inhibition was inactive: -2.82%.
With `CC(C)Oc1ccc(C(=O)NCC2(N(C)C)CCCCC2)cc1` the inhibition was inactive: -0.36%.
With `CN(C)c1cccc(C(=O)NCC2(N(C)C)CCCCC2)c1` the inhibition was inactive: -0.72%.
For `CN(C)C1(CNC(=O)c2ccc(Br)cc2)CCCCC1`, the inhibition was inactive: -0.18%.
With `COc1cc(C(=O)NCC2(N(C)C)CCCCC2)c([N+](=O)[O-])cc1OC` the inhibition was inactive: 1.51%.
With `COc1cccc(C(=O)NCC2(N3CCCCC3)CCCCC2)c1` the inhibition was inactive: -0.51%.
For `COc1ccc(Cl)cc1C(=O)NCC1(N(C)C)CCCCC1`, the inhibition was inactive: 0.5%.
With `O=C(NCC1(N2CCCCC2)CCCCC1)c1cccc(Cl)c1` the inhibition was inactive: 1.36%.
